Values of other authors, collected in patent publication US7981605B2, “Epidermal growth factor receptor mutations” (Amgen Inc., priority 2005, dated 2011).

System: NSCLC tumors with EGFr mutations
Conditions: deletions in amino acids 746-759 region, L858R, L861Q, G719C, G719S, R776C/L858R (Lynch, Paez, Pao 2004)

Q: With COc1cc2ncnc(Nc3ccc(F)c(Cl)c3)c2cc1OCCCN1CCOCC1 [gefitinib] as the compound, how does the “sensitivity of NSCLC tumors with EGFr mutations” value read?
A: display sensitivity
